Literature values as cited in patent publication US20250082647A1, “SPECIFIC DOSAGE OF PHENOTHIAZINE COMPOUNDS FOR USE IN TREATMENT OR PREVENTION OF ALZHEIMER'S DEMENTIA” (IMMUNGENETICS AG, priority 2022, published 2025).

Sequences of proteins named here, by UniProt entry; tags and fusion partners are left off. A change or cut given only in a name is not applied to a line headed by its entry.
UniProt O35379: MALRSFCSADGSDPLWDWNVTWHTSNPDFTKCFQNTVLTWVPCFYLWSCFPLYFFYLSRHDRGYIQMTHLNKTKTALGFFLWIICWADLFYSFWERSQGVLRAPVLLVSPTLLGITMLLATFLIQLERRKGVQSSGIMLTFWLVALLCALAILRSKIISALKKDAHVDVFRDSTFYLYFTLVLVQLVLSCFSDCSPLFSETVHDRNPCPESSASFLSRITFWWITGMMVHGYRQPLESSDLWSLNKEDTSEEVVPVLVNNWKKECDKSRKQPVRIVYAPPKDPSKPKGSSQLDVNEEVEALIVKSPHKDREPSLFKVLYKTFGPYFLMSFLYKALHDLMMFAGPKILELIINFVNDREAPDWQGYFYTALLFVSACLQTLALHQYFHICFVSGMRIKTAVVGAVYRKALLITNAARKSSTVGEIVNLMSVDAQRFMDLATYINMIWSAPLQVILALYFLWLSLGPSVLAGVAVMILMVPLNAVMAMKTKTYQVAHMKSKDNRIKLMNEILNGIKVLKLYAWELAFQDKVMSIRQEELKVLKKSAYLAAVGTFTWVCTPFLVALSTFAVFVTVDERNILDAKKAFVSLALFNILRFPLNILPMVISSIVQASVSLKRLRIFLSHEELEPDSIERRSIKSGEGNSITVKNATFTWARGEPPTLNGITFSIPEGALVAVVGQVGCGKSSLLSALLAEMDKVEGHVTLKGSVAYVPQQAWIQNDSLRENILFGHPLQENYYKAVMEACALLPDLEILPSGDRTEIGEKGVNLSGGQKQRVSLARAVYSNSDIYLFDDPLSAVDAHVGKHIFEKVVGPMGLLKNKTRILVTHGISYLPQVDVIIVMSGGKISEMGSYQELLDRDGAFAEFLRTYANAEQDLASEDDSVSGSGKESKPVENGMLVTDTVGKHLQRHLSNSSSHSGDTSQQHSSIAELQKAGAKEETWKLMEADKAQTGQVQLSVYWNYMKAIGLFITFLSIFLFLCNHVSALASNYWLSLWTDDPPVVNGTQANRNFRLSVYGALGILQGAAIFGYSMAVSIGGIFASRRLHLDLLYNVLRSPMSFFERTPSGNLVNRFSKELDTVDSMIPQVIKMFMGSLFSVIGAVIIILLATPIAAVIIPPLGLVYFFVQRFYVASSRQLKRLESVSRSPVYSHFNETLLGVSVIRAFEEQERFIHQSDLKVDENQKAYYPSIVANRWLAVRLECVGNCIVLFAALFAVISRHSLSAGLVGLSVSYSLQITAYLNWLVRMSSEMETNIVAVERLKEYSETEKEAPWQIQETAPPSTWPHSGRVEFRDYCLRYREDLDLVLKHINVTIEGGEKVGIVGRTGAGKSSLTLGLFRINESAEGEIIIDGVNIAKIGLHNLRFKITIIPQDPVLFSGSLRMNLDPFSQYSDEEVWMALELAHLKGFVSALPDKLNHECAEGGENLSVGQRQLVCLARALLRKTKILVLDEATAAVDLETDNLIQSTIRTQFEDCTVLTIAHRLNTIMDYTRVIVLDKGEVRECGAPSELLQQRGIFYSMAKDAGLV

Key:
[1] = system: wild-type human BE(2)-m17 neuroblastoma cells; settings: wild-type BE(2)-m17 cells incubated with fluorescent Abeta-42; cited from earlier work
[2] = target: T1, transport protein ABCC1 (Mus musculus, UniProt O35379); settings: mice; cited from earlier work
T1 construct: thiethylperazine has been proven effective in murine models of Alzheimer's disease (AD); host or cells: mice (murine models of Alzheimer's disease), blood-brain barrier endothelium

[3] = system: ABCC1 overexpressing BE(2)-m17 cells; settings: simultaneous overexpression of ABCC1 in BE(2)-m17 cells, fluorescent Abeta-42; cited from earlier work

CCSc1ccc2c(c1)N(CCCN1CCN(C)CC1)c1ccccc1S2 [thiethylperazine, 2-(ethylsulfanyl)-10-[3-(4-methylpiperazin-1-yl)propyl]-10H-phenothiazine]
decrease of wild-type cells that efficiently took up Abeta-42 [1]: 29.6% | activation of the transport protein ABCC1 that clears beta-amyloid from brains [2]: activates | decrease of cells that efficiently took up Abeta-42 [3]: 44.4%
